# OPERA 2.9 data: water solubility values

Source: data files of OPERA 2.9 (Mansouri et al.), github.com/kmansouri/OPERA.

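These are experimental values that the OPERA curators gathered from public databases to train and test their QSAR models. A listed value is a point estimate from one report or more. How each value was measured is not recorded, so precision varies. A value may pool stereoisomers or salt forms, and the file does not say which form was measured. Some upstream entries may be estimates or bounds without being marked so.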

Solubility in water is on a log10 molar scale (set defined at 25 °C).
Cells with "–" have no entry in this list.

structure (SMILES),name,water solubility (log10 mol/L)
COc1ccc(/C=N/NC(N)=S)cc1O[C@@H]1O[C@H](CO)[C@@H](O)[C@H](O)[C@H]1O,–,-2.889
CCC1(C)C(=O)NC(=O)N1CN1C(=O)NC(=O)C1(C)CC (configuration not stated),"1,1'-Methylenebis(5-ethyl-5-methylimidazolidine-2,4-dione)",-2.518
COCC(=O)OC(c1ncccc1S(=O)(=O)NC(=O)Nc1nc(OC)cc(OC)n1)C(C)F (configuration not stated),Flucetosulfuron,-3.631
CC(C)CCOC(=O)c1c(C(=O)O)cccc1[N+](=O)[O-],3-Nitro-phthalic acid-2-isopentyl ester,-3.069
CCCCCCCCCNC(=O)C(O)C(O)C(O)C(O)CO (configuration not stated),"2,3,4,5,6-pentahydroxy-N-nonylhexanamide",-3.507
CCCOC(C)OCCc1ccccc1 (configuration not stated),[2-(1-Propoxyethoxy)ethyl]benzene,-3.384
CCCCCCCC/C=C\CCCCCCCCOC(=O)CCCCCCC/C=C\CCCCCCCC,(9Z)-9-Octadecen-1-yl (9Z)-9-octadecenoate,-7.028
CCCCCCCC/C=C\CCCCCCCC(=O)OCC(CC)(CO)COC(=O)CCCCCCC/C=C\CCCCCCCC,Trimethylolpropane dioleate,-7.69
Cc1ccc(/N=N/c2c(O)c(C(=O)[O-])cc3ccccc23)c(S(=O)(=O)[O-])c1.[Ba+2],–,-5.735
Cn1c(=O)c2[nH]c(=O)[nH]c2n(C)c1=O,"1,3-Dimethyluric acid",-2.577
C=CCCC1CCC(C2CCC(c3ccc(C)cc3)CC2)CC1 (configuration not stated),–,-6.869
CCCCCC(O)=NCCN=C(O)CCCCC,"N,N'-(Ethane-1,2-diyl)dihexanimidic acid",-3.11
Clc1cc(Oc2c(Cl)ccc(Cl)c2Cl)c(Cl)c(Cl)c1Cl,"2,2',3,3',4,5,6'-Heptachloro-diPh ether",-8.89
Nc1ccc2cc(S(=O)(=O)O)cc(S(=O)(=O)O)c2c1,"1,3-Naphthalenedisulfonic acid, 7-amino-",-0.518
CN(C)C(=O)COC(=O)c1ccccc1O,"BENZOIC ACID, 2-HYDROXY-, 2-(DIMETHYLAMINO)-2-OX",-1.705
CCCCCCCCCCCCCCCCOC(=O)C(CC)CCCC (configuration not stated),"Hexanoic acid, 2-ethyl-, hexadecyl ester",-6.868
O=C(Nc1cc(Cl)c(NC(=O)c2cc3ccccc3c(N=Nc3cc(C(F)(F)F)ccc3Cl)c2O)cc1Cl)c1cc2ccccc2c(N=Nc2cc(C(F)(F)F)ccc2Cl)c1O,Pigment Red 242,-7.692
CCOc1cc(N=Nc2c(Br)cc([N+](=O)[O-])cc2[N+](=O)[O-])c(NC(C)=O)cc1N(CCOC(C)=O)CCOC(C)=O,C.I. Disperse Blue 79,-8.455
CCCCOC(=O)c1ccccc1N=Nc1c(O)c(C(=O)Nc2ccc3[nH]c(=O)[nH]c3c2)cc2ccccc12,–,-8.214
Brc1ccc(Oc2ccc(Br)c(Br)c2)c(Br)c1,"2,3',4,4'-Tetrabromodiphenyl ether",-7.431
CCCCCCCCCCCCCCCCCCOCCCN(C)C,Stearoxypropyl dimethylamine,-6.852
COC1(OC)CCC2=C(CC[C@@H]3[C@@H]2CC[C@]2(C)C(=O)CC[C@@H]32)C1,"3,3-Dimethoxyestr-5(10)-en-17-one",-4.042
COC(=O)[C@]1(NC(=O)Cc2cc(C)ccc2C)CC[C@@H](OC)CC1,–,-3.123
O=c1nc(-c2cc(Cl)cc(Cl)c2O)[nH]c2ccccc12,"2-(3,5-Dichloro-2-hydroxyphenyl)-4(1H)-quinazolinone",-7.056
CCN(CC)CC(=O)OCC(=O)[C@@]1(O)CC[C@H]2[C@@H]3CCC4=CC(=O)CC[C@]4(C)[C@H]3[C@@H](O)C[C@@]21C,Hydrocortamate,-3.745
Cc1cccc(C)c1OS(=O)(=O)c1ccc(O)cc1,"2,6-Dimethylphenyl 4-hydroxybenzenesulfonate",-4.537
COc1cc(/N=N/c2cc(S(=O)(=O)[O-])cc3cc(S(=O)(=O)[O-])cc(O)c23)c(C)cc1NC(=O)Nc1cc(C)c(/N=N/c2cc(S(=O)(=O)[O-])cc3cc(S(=O)(=O)[O-])cc(O)c23)cc1OC.[Na+].[Na+].[Na+].[Na+],Chlorantine Fast Red 6BLL,-2.69
CCC(CC)CO[Si](OCC(CC)CC)(OCC(CC)CC)OCC(CC)CC,Tetrakis(2-ethylbutyl) orthosilicate,-8.191
C=CC(C)CCCC(C)(C)O (configuration not stated),"1,1,5-Trimethyl-6-heptenol",-2.507
CCOC(=O)C(Cc1ccccc1C(=O)O)C(=O)OCC,"1,3-Diethyl (o-carboxybenzyl)malonate",-2.816
CON=C(C)Cc1c(Cl)cc(Cl)cc1Cl,"1-(2,4,6-Trichlorophenyl)-2-propanone O-methyloxime",-4.417
Cc1ccc([N+](=O)[O-])cc1Cl,2-Chloro-1-methyl-4-nitrobenzene,-3.32
COc1cc(NC(=O)c2cc3ccccc3c(N=Nc3cc(C(=O)Nc4ccccc4)ccc3OC)c2O)c(OC)cc1Cl,–,-7.847
C#CC1(OC(C)=O)CCCCC1,"Cyclohexanol, 1-ethynyl-, 1-acetate",-2.352
COc1ccc(-c2ccccc2)cc1,"1,1'-Biphenyl, 4-methoxy-",-3.821
O=C(O)[C@H](O)[C@@H](O)CO,Threonate,-0.41
CC(=O)c1ccc2c(c1)N(CCCN(C)C)c1ccccc1S2.O=C(O)/C=C\C(=O)O,Acetopromazine maleate,-1.08
O=C(O)C(F)(F)C(F)(F)C(F)(F)F,Perfluorobutanoic acid,-2.68
CCCOc1ccc(C(=O)OCCN(CC)CC)cc1N,Proxymetacaine,-2.326
Cc1cc(C(C)(C)C)cc(C)c1CC#N,"Benzeneacetonitrile, 4-(1,1-dimethylethyl)-2,6-dimethyl-",-4.702
CCn1cc(C(=O)O)c(=O)c2cc(F)c(N3CCNC(C)C3)c(F)c21 (configuration not stated),Lomefloxacin,-2.533
Cc1cc(-c2ccc(N=C=O)c(C)c2)ccc1N=C=O,"3,3'-Dimethyl-4,4'-diphenylene diisocyanate",-2.308
Cc1cc(O[C@@H]2O[C@H](CO)[C@@H](O)[C@H](O)[C@H]2O)cc2c1O[C@](C)(CCC[C@H](C)CCC[C@H](C)CCCC(C)C)CC2,–,-6.673
CO[C@@]1(NC(=O)CSCC#N)C(=O)N2C(C(=O)O)=C(CSc3nnnn3C)CS[C@@H]21,Cefmetazole,-2.339
CCCS(=O)(=O)Nc1ccc(F)c(C(=O)c2cn(C(=O)c3c(Cl)cccc3Cl)c3ncc(Br)cc23)c1F,–,-6.044
COc1cc(C=CC(=O)O)cc(OC)c1OC,"2-Propenoic acid, 3-(3,4,5-trimethoxyphenyl)-",-2.83
CC(=O)/C=C(\C)[C@@]12CCC[C@@]3(C)[C@@H]1CC[C@@]3(C)C2,–,-4.999
CC1(C)C2CCC1(CS(=O)(=O)O)C(=O)C2.O=C(O)C(c1ccccc1Cl)N1CCc2sccc2C1 (configuration not stated),–,-3.613
CC(C)c1nn(C(=O)NC(C)(C)C)c(=O)n1N,Amicarbazone,-1.719
C1CN(SSN2CCOCC2)CCO1,"4,4'-Dithiodimorpholine",-3.26
CC(=O)Oc1ccccc1C(=O)Nc1ncc([N+](=O)[O-])s1,Nitazoxanide,-4.61
O=C1NCC2(CCN(CCc3ccccc3)CC2)O1,Fenspiride,-2.394

Excerpt, the final 4 entries:

| structure (SMILES) | name | water solubility (log10 mol/L) |
|---|---|---|
| CC(C)c1nn(C(=O)NC(C)(C)C)c(=O)n1N | Amicarbazone | -1.719 |
| C1CN(SSN2CCOCC2)CCO1 | 4,4'-Dithiodimorpholine | -3.26 |
| CC(=O)Oc1ccccc1C(=O)Nc1ncc([N+](=O)[O-])s1 | Nitazoxanide | -4.61 |
| O=C1NCC2(CCN(CCc3ccccc3)CC2)O1 | Fenspiride | -2.394 |